# What was measured:
# [1] = test system: PBMC obtained from a subject having CTCL; test: Induction of apoptosis in CTCL PBMC, TUNEL assay (Example 3); type: cell-based, human; settings: UV-A light
# [2] = following oral administration; cited from earlier work
smiles,measurement,setting,value
"Cc1cc(O)c2c(=O)c3c(O)cc(O)c4c5c(O)cc(O)c6c(=O)c7c(O)cc(C)c8c1c2c(c34)c(c78)c65 [hypericin, 1,3,4,6,8,13-Hexahydroxy-10,11,dimethyl-phenanthro[1,10,9,8,-opqra]perylene-7,14-dione]","selectivity of apoptosis induction, malignant vs normal leukocytes",[1],significantly greater than its capacity to induce apoptosis of normal leukocytes
same,oral bioavailability,[2],about 20%

# Source: patent publication US6001882A (priority 1997, dated 1999)
